Molecular target: T1, native TRPV1 (Rattus norvegicus, UniProt O35433)
T1 construct: RTX-induced membrane currents on native TRPV1 in embryonic DRG neurons grown in culture; endogenous in cells; host or cells: primary rat E18 DRG neurons
Experiment: Single-channel currents in cell-attached patches from DRG neurons
Assay type: cell-based
Conditions: between 0 and +100 mV
Excerpt: For single-channel recording in cell-attached patches from DRG neurons, the bath solution contained (mM): potassium gluconate 140, KCl 2.5, MgCl2 1, Hepes 5 and EGTA 1.5; pH adjusted to 7.35 with NaOH. The patch pipettes were made from glass capillaries (Drummond, Microcaps), coated with Sylgard (Dow Corning, Midland, Mich., USA). For cell-attached patches, the patch pipettes were filled with a solution that contained (mM): sodium gluconate 140, NaCl 10, MgCl2 1, Hepes 5 and EGTA 1.5; pH adjusted to 7.35 with NaOH. […] The currents were recorded using a WPC 100 (Warner Instruments) or Axopatch 2B (Axon Instruments, Union City, Calif., USA) patch-clamp amplifier. […]
Single-channel analysis. […] For current-voltage relationships, the amplitudes were determined by fitting a Gaussian curve to an all-point histogram. Po was determined using unedited segments of data, which were typically 1-5 min long. For multiple channel patches, the mean Po was measured as nPo, where n is the number of channels in the patch. Chord conductance was measured at +60 or −60 mV. […]
Single-channel conductance. To further evaluate the properties of TRPV1 activation by RTX, we recorded single-channel currents from cell-attached and excised patches from DRG neurons and oocytes heterologously expressing TRPV1. […]

Sequences of proteins named here, by UniProt entry; tags and fusion partners are left off.
UniProt O35433, whole entry: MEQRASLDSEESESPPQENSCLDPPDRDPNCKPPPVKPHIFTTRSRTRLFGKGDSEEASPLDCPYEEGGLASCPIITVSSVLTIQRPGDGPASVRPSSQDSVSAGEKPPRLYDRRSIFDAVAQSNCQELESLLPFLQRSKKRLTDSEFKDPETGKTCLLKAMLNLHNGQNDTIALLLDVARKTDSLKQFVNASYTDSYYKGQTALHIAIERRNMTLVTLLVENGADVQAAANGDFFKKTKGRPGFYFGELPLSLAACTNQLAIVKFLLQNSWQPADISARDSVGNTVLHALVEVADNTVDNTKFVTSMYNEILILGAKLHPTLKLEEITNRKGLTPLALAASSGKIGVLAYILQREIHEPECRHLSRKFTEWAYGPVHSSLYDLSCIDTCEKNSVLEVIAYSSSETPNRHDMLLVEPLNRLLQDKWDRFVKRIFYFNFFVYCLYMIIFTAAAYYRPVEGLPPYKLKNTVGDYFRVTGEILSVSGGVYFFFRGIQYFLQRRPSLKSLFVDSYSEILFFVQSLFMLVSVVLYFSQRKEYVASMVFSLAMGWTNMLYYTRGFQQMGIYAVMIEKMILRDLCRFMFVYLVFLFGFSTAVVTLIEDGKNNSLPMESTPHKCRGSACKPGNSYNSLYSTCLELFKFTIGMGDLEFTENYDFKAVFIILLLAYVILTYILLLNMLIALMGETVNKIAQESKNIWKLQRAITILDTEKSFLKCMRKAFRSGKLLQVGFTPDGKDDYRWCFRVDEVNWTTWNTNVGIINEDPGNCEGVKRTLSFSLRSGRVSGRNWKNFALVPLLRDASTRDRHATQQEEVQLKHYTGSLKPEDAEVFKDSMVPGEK

SMILES: COc1cc(CNC(=O)CCCC/C=C/C(C)C)ccc1O [capsaicin]
- slope conductance, outward limb / positive potentials: 107 pS

— patent US20090209633A1, “Treatment of Pain With Resiniferatoxin and Related Analogs” (priority 2006, published 2009)
